The target in experiment [1] is T1, receptor tyrosine kinase DDR1 (Homo sapiens, UniProt Q08345).
T1 construct: endogenous in cells; host or cells: K562 cells / K562 cell lysate
Briefly: kinobeads competition binding assay in K562 cell lysate (iTRAQ mass spectrometry, Western blot). The settings on record: at 1 µM. Background: In western blotting, separated proteins are transferred to a membrane and probed.

By UniProt entry, the sequences of proteins in these tests, tags left out. Residues count along the entry.
UniProt Q08345, 19-913: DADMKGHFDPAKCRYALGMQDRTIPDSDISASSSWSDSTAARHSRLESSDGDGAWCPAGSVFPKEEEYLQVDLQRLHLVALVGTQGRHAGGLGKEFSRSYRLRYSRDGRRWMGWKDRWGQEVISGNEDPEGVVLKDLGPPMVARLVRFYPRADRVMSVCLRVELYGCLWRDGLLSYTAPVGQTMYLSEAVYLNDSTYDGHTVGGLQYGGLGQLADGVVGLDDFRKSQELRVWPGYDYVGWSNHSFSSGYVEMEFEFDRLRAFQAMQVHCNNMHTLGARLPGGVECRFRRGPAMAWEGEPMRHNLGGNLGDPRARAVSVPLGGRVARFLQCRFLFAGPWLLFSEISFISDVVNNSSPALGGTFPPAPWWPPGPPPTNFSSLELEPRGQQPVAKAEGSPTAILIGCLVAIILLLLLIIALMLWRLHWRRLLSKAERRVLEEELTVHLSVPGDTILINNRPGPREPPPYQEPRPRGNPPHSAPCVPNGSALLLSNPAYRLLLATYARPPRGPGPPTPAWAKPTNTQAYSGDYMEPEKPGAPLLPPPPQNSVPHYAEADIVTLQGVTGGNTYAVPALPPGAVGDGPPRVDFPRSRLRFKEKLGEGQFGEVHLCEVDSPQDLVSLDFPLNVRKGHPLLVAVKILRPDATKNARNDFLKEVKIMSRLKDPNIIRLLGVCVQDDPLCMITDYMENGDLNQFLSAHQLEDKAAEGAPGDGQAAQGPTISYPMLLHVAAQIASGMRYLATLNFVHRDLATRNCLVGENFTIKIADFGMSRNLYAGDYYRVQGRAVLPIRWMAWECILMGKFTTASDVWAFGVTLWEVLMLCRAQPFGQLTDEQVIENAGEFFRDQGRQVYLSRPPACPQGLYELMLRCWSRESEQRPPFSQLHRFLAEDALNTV
UniProt P42684, whole entry: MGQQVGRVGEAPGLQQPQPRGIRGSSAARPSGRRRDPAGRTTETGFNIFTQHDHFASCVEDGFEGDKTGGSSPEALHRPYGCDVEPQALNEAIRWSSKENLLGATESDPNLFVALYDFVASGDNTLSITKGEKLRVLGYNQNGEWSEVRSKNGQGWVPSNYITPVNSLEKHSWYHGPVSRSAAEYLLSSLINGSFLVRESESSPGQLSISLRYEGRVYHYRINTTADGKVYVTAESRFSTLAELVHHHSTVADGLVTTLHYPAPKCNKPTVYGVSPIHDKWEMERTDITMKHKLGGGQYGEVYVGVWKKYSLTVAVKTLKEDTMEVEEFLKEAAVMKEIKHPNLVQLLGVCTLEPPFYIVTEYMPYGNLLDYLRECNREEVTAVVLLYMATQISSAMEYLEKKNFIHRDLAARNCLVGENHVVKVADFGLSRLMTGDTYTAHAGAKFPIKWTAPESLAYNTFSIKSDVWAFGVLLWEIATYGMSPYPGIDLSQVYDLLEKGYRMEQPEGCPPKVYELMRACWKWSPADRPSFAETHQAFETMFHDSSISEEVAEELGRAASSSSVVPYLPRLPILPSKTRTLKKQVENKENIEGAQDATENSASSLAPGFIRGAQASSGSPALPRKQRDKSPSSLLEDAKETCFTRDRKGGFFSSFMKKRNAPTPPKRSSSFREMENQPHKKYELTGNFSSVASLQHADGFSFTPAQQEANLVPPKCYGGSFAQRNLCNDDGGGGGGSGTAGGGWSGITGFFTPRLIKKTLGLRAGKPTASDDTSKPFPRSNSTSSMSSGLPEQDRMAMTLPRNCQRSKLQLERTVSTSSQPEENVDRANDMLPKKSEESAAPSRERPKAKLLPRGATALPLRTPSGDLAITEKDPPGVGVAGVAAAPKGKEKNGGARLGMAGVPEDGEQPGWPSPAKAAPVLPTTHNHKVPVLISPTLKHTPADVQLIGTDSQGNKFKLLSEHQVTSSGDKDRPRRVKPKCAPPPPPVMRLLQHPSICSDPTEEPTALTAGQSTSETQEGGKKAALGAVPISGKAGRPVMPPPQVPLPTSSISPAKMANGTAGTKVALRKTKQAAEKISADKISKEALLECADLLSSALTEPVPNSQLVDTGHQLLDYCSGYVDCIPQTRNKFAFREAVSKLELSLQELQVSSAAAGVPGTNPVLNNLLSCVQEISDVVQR

For the next experiment, the target named is ABL family kinase Arg (Homo sapiens, UniProt P42684). The settings on record: at 1 µM, K562 lysate.

Molecules are shown by their SMILES.

In the case of `Cc1nc(Nc2ncc(C(=O)Nc3c(C)cccc3Cl)s2)cc(N2CCN(CCO)CC2)n1` [dasatinib], the competition (in experiment [1]; on ABL family kinase Arg) was above 50% each time.

For the origin of these results see patent EP1992347A1 (CELLZOME AG, priority 2007, dated 2008).
